In brackets after ≈: the same amount, converted by molar mass. Only a part of the results on these compounds is given; other tests are left out.
What was measured:
[1] = system: polyclonal antibodies from immunogen-2; assay: Competitive immunoassay, polystyrene solid support, polyclonal antibodies from immunogen-2 (RS3706), Hapten 2 as tracer; settings: for IC50 (standard concentration which produces 50% inhibition of maximal signal): polystyrene, 37° C., incubation 2 hours; for % CR (cross-reactivity): relative to U-47700 = 100%
Procedure: (§1) In order to generate polyclonal antisera, 2 mgs of the immunogen-2 is prepared in PBS, mixed at a ratio of 50% immunogen in PBS to 50% Freund's Complete adjuvant (Sigma, Product Number F5881) and emulsified by repeatedly passing the mixture through a tip on the end of a 1 ml syringe, until it reaches the required semi-solid consistency. 1 ml of the emulsified mixture is injected intramuscularly into each host animal (sheep) as the primary immunization dose. Further injections (boosts) are prepared (1 mg of immunogen is prepared in PBS and mixed at a ratio of 50% Immunogen in PBS/50% Freunds Incomplete adjuvant, Sigma, Product Number—F5506). Boost injections are delivered intramuscularly at monthly intervals, 1 ml per animal. Serum is sampled monthly by collection of whole blood from the jugular vein for evaluation of the antibody titre. The degree of antibody purification required depends on the intended application. For many purposes, there is no requirement for purification of the serum, however, in other cases, such as where the antibody is to be immobilized on a solid support, purification steps (such as caprylic acid/ammonium sulphate precipitation) can be taken to remove undesired material and eliminate non-specific binding.
Immunoassay development follows a standard process. A detecting agent (hapten conjugated to HRP) is added to a sample containing the target analyte and the raised antibodies, promoting competition between the detecting agent and analyte for binding to the antibodies. The antibodies are contacted with a solid support; for example, following dilution of the antibodies in coating buffer the antibody-containing buffer is added to the solid support and incubated, typically at approximately 37° C. for about 2 hours, to allow antibody binding to surface. The antibodies can be polyclonal or monoclonal using standard techniques. The signal emitted in the immunoassay is proportionate to the amount of detecting agent bound to the antibodies which in turn is inversely proportionate to the analyte concentration. The signal can be detected or quantified by comparison with a calibrator which comprises known levels of target analyte. The cross-reactivity (CR) can be calculated using the equation below in which calculations are based upon binding and displacement at the 50% of maximum OD (optical density) binding point. The maximum OD is the signal generated using tracer alone and 50% displacement (inhibition) corresponds to the IC50. % CR=(OD without cross-reactant−OD with cross-reactant)×100 Using the above immunoassay development method (solid support=polystyrene, polyclonal antibodies from immunogen-2, temp=37° C., incubation 2 hours, using Hapten 2 as tracer) and quantification method the following % CR results were arrived at […]

[2] = system: antibodies from Immunogen 2 (further sheep); assay: Competitive immunoassay, antibodies of further sheep, Immunogen 2 and Hapten 2 as tracer
Procedure: as §1, with “binding. Immunoassay development follows a standard process. A detecting agent (hapten conjugated to HRP) is added to a sample containing the target analyte and the raised antibodies, promoting competition between the detecting agent and analyte for binding to the antibodies. […] The signal can be detected or quantified by comparison with a calibrator which comprises known levels of target analyte. The cross-reactivity (CR) can be calculated using the equation below in which calculations are based upon binding and displacement at the 50% of maximum OD (optical density) binding point. […]” for “binding.”

[3] = system: antibodies from Immunogen 2 (further sheep); assay: Competitive immunoassay, antibodies of further sheep, Immunogen 2 and Hapten 1 as tracer
Procedure: as §1, with “binding. Immunoassay development follows a standard process. A detecting agent (hapten conjugated to HRP) is added to a sample containing the target analyte and the raised antibodies, promoting competition between the detecting agent and analyte for binding to the antibodies. […] The signal can be detected or quantified by comparison with a calibrator which comprises known levels of target analyte. The cross-reactivity (CR) can be calculated using the equation below in which calculations are based upon binding and displacement at the 50% of maximum OD (optical density) binding point. […]” for “binding.”

[4] = system: U-47700 targeted antibodies of the invention; assay: NPS II biochip assay on the Evidence Investigator platform
From the text: Similar cross-reactivity results were obtained using an NPS II biochip assay on the Evidence Investigator platform, which is a semi-automated benchtop platform that facilitates simultaneous detection of multiple drug metabolites from a single sample (Randox Laboratories Ltd, Crumlin, Northern Ireland, UK).

Row | Compound | IC50 (standard concentration which produces 50% inhibition of maximal signal) [1] | % CR (cross-reactivity) [1] | % CR [2] | % CR [3] | % CR [4] | IC50 [2] | IC50 [3]
1 | CNC1CCCCC1N(C)C(=O)c1ccc(Cl)c(Cl)c1 (stereo not drawn) | 3.61 ng/mL | 20% | 17.30% | 23.40% | 24.3% |  | 
2 | CN(C)C1CCCCC1N(C)C(=O)c1ccc(Cl)c(Cl)c1 (stereo not drawn) | 0.722 ng/mL | 100.00% | 100% | 100% | 100.0% | 2.140 ng/mL (≈ 6.5 nM) | 0.741 ng/mL (≈ 2.25 nM)
